Values of other authors, collected in patent publication US20080200491A1, “1,2-Dihydro-Spiro[3H-Indole-3,4'-Piperidine] Compounds, as Modulators of the Mas Receptor Novel” (priority 2005, published 2008).

Sequences of proteins named here, by UniProt entry; tags and fusion partners are left off.
UniProt Q9GZQ6, whole entry, species assumed: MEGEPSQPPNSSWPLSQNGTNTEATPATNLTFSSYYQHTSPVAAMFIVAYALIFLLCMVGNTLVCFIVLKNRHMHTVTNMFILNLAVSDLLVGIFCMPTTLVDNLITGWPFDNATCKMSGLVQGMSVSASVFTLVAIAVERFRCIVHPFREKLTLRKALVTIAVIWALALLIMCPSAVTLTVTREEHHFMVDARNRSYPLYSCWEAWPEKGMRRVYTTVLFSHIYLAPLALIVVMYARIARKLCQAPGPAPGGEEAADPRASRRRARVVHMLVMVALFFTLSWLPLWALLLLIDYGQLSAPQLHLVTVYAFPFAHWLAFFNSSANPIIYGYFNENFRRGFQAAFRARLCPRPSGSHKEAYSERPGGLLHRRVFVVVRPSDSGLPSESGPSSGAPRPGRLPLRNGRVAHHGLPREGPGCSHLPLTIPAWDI
UniProt Q9Y5X5, whole entry, species assumed: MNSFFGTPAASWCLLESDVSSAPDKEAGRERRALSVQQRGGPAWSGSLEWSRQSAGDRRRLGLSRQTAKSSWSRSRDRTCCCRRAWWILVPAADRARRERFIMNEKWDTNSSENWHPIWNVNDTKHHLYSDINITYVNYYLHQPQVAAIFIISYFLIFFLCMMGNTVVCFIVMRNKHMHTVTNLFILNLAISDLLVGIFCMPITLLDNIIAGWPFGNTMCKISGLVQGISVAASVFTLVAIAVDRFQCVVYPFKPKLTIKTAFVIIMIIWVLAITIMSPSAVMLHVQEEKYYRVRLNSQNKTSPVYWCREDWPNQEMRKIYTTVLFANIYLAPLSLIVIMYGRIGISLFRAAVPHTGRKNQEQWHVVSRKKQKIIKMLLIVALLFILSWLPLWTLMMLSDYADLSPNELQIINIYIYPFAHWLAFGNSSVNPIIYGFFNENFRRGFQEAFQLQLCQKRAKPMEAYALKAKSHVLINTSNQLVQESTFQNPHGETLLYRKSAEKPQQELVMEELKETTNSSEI

Experiments:
NPFF1 = NPFF1 (Homo sapiens, UniProt Q9GZQ6); conditions: Bonini et al. 2000; Elshourbagy et al. 2000; cited from earlier work
NPFF2 = NPFF2 (Homo sapiens, UniProt Q9Y5X5); conditions: Bonini et al. 2000; Elshourbagy et al. 2000; cited from earlier work

a peptide called NPFF, reported to bind the Mas receptor weakly and NPFF1/NPFF2 with high affinity
Kd (NPFF1): 1.3 nM | Kd (NPFF2): 0.3 nM
